# Assay results published in patent publication US12076315B2 (Clear Creek Bio, Inc., priority 2020, dated 2024).
# Assay: Stability of Pattern C under vacuum drying
# Conditions: vacuum drying condition of 50° C. for 18 h
compound,measurement,value
"Cc1c(-c2ccc(-c3ccccc3F)cc2)nc2ccc(F)cc2c1C(=O)[O-].[Na+] [Pattern C, 6-Flouro-2-(2′-fluoro-1,1′-biphenyl-4-yl)-3-methyl-4-quinolinecarboxylic acid sodium salt]",Polymorphic form after vacuum drying,remains the same
